Measured values from patent US10301272B2.

By UniProt entry, the sequences of proteins in these tests, tags left out. Residues count along the entry.
UniProt P51449, whole entry: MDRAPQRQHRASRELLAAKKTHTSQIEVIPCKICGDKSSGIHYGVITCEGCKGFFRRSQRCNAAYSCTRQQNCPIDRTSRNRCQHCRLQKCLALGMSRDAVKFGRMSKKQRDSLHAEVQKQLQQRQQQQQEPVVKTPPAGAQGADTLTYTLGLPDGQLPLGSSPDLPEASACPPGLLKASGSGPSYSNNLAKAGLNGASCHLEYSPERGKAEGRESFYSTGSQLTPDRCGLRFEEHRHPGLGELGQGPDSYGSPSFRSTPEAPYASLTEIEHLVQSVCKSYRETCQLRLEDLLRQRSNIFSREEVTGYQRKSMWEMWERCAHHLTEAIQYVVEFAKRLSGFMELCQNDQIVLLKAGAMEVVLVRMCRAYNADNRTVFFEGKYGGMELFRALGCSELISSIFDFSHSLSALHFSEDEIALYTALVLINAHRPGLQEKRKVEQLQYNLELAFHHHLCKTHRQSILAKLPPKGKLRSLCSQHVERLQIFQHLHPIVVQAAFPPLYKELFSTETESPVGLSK
UniProt P51449, 269-508 limits assumed: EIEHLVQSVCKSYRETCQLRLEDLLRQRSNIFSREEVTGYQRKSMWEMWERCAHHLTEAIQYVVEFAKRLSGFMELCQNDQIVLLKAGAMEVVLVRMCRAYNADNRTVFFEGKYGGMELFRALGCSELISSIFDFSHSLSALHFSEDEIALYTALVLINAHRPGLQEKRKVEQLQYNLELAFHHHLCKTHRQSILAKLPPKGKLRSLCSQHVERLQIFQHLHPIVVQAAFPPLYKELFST

Assays:
RORγ = RORγ (Homo sapiens, UniProt P51449)
[1] = target: RORγ ligand binding domain (LBD) (Homo sapiens (Human), UniProt P51449); experiment: TR-FRET Activity Assay (ligand sensing assay, LANCE); conditions: interaction of RORγ-LBD with coactivator peptide

Row | SMILES | pIC50 (FF) (RORγ) | pIC50 (REN) (RORγ) | pIC50 (FRET) [1]
1 | CCc1nc(C(=O)N2CC3(CCOCC3)C2)sc1-c1ccc(S(=O)(=O)NC(C)(C)C)c2ccccc12 | 5.9/6.8/6.9 | 5.9/6.8/6.9 | 5.9/6.8/6.9
2 | O=C(NC1CCS(=O)(=O)CC1)c1nc(CC2CCCCC2)c(-c2ccc(C3(O)COC3)c3ccccc23)s1 | 5.7/6.3/6.2 | 5.7/6.3/6.2 | 5.7/6.3/6.2
3 | CC(C)(C)c1cc(C(C)(C)C)nc(-c2sc(C(=O)N[C@H]3C[C@H](C(=O)O)C3)nc2CC2CCCCC2)n1 | 6.4/6.7/6.4 | 6.4/6.7/6.4 | 6.4/6.7/6.4
4 | CC(C)(O)CNC(=O)c1nc(C(=O)N2CCC(C)(C)CC2)c(-c2ccc(S(=O)(=O)NC(C)(C)C)c3ccccc23)s1 | 5.9/7.6/7.5 | 5.9/7.6/7.5 | 5.9/7.6/7.5
